In this assay the target is Bromodomain-containing protein 2 (Homo sapiens, UniProt P25440). The assay is described as follows: Displacement of FAM-labeled ZBA248 from BRD2 BD2 (349 to 460 amino acid residues) (unknown origin) expressed in Rosetta2 DE3 cells after 30 mins by fluorescence polarization assay.

Sequences of proteins named here, by UniProt entry; tags and fusion partners are left off.
UniProt P25440, whole entry: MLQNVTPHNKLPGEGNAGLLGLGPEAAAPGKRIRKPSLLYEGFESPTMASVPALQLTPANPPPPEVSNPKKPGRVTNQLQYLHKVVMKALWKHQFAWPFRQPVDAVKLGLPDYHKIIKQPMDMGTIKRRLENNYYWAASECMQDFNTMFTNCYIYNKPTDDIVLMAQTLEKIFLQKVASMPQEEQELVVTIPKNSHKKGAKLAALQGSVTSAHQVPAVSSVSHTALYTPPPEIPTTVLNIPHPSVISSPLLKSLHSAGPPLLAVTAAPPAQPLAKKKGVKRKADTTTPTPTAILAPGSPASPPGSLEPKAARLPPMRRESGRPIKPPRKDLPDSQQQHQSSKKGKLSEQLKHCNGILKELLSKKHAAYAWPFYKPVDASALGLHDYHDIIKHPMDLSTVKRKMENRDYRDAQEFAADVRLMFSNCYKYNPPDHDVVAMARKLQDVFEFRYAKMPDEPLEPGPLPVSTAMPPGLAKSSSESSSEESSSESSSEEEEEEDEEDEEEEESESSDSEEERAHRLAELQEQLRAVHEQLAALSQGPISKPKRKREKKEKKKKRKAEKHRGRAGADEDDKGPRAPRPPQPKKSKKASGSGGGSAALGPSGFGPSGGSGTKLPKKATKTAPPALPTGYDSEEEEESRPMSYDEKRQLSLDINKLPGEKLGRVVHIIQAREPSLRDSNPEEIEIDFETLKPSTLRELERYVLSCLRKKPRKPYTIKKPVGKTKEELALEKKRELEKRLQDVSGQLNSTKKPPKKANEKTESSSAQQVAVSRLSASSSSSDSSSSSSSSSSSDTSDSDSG

Molecules are shown by their SMILES.

Here are results for one molecule from ChEMBL document CHEMBL3580597 (J Med Chem, 2015).

By Ki is commonly meant a dissociation constant, usually derived from enzyme kinetics or from competition with a known ligand. The low end stands for a stronger hold on the target, the high end for a looser hold on the target. Take `Cc1sc2c(c1C)C(c1ccc(Cl)cc1)=N[C@@H](CC(=O)Nc1ccc(O)cc1)c1nnc(C)n1-2` [BIRABRESIB]: the affinity corresponds to a Ki of 5.4 nM.
